Source: PubChem BioAssay AID1529 (NMMLSC, 2009)
The list shows a part of the results, in another mix than the full data. Calls of active or inactive are those of the source.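 The calls were made as follows: active = binding response more than 3 SD above or below the average of its plate-row segment, actives on both sides; inconclusive = wells at one plate position flagged as instrument error; inactive = the rest.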

The chains behind the UniProt entries cited, without tags or fusion partners. Where a name states a change or a piece, a line headed by the entry shows the natural chain unless it says otherwise.
UniProt Q99759: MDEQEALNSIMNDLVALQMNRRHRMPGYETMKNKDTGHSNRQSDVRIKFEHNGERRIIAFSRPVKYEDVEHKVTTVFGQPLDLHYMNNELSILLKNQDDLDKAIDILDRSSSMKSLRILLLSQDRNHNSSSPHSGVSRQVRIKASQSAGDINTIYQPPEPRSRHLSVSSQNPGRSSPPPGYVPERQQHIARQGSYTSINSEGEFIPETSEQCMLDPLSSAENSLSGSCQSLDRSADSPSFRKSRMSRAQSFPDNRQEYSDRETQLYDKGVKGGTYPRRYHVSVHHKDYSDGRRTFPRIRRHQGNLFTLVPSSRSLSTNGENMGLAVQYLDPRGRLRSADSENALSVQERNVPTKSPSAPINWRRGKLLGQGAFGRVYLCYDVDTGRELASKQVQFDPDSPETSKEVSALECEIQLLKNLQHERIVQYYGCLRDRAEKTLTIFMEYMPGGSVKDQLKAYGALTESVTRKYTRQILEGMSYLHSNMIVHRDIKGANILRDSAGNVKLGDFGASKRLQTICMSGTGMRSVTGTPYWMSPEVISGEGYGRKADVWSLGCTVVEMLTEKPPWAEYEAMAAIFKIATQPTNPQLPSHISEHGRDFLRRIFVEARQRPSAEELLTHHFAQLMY

molecular target: Mitogen-activated protein kinase kinase kinase 3 (Homo sapiens) (UniProt Q99759); assay: compounds raising or lowering MEK5 association with MEKK3 PB1 – biochemical, wildtype MEKK3, multiplex bead flow cytometry, Alexa488-MEK5, primary screen (AID 1529); details: bead-based flow cytometry, Alexa488-MEK5 binding to MEKK3; at 10 µM; actives lie on both sides; 0 = blocked by unlabeled MEK5, 100 = vehicle;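 also: Alexa488 bead fluorescence after subtracting the streptavidin-only scavenger bead signal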

Compound	binding response (% of control)
CC(C)/C=N\N=C(\N)N[N+](=O)[O-]	inactive: 95%
CN(C(=O)Cc1ccc(Cl)c(Cl)c1)[C@@H]1CCCC[C@H]1N1CCCC1	inactive: 87%
Clc1n[nH]nc1-c1nn[nH][15n]1	inactive: 100%
CC(C)(C)C(=O)NC(Sc1ncccn1)C(Cl)(Cl)Cl (stereo unspecified)	inactive: 94%
CCOP(=O)(Nc1ccc(C)cn1)OCC	inactive: 106%
CN(CCCl)Cc1cc(Cl)c(NC2=NCCN2)c(Cl)c1	inactive: 111%
O=P1(Nc2ccccn2)COc2ccccc2OC1	inactive: 103%
CCC1=CC2Cc3nc4ccc(Cl)cc4c(N)c3C(C1)C2 (stereo unspecified)	inactive: 118%
CCOP(=O)(NC(=NC(C)c1ccccc1)NC(C)c1ccccc1)OCC (stereo unspecified)	inactive: 104%
CCC(C)N(CC(C)C)C(=S)SC(NC(C)=O)C(Cl)(Cl)Cl (stereo unspecified)	inactive: 107%
CCOC(=O)c1ccc(NC(=O)C(C)(CCl)SC)cc1 (stereo unspecified)	inactive: 99%
O=C(OC1CN2CCC1CC2)c1cccc([N+](=O)[O-])c1 (stereo unspecified)	inactive: 104%
O=C(Nc1ccncc1[N+](=O)[O-])c1ccc([N+](=O)[O-])cc1[N+](=O)[O-]	inactive: 105%
COP1(=S)c2c(C)nn(CCC#N)c2N=C(c2ccc(F)cc2)N1C (stereo unspecified)	inactive: 102%
O=[N+]([O-])c1ccc(Nc2ccc(Oc3ccc([N+](=O)[O-])cc3[N+](=O)[O-])cc2)c([N+](=O)[O-])c1	inactive: 101%
O=P(Nc1ccccn1)(c1cccc2ccccc12)c1cccc2ccccc12	inactive: 101%
Cc1cc(SC(NC=O)C(Cl)(Cl)Cl)ncn1 (stereo unspecified)	inactive: 102%
CCOC(=O)Nc1cccc([As](=O)(O)O)c1	inactive: 109%

Compound	binding response (% of control)
CCCCOc1ccc(C(=O)NCC2(N3CCCCC3)CCCCC2)cc1OC	inactive: 102%
Cc1cc(SC(NC(=O)c2ccccc2)C(Cl)(Cl)Cl)nc(C(C)C)n1 (stereo unspecified)	inactive: 107%
CCOC(=O)Nc1ccc([As](=O)(O)O)c(O)c1	inactive: 103%
CC(C)NC(=O)NP(=O)(Oc1ccccc1)Oc1ccccc1	inactive: 105%
CCN(CC)C(=S)SC(NC=O)C(Cl)(Cl)Cl (stereo unspecified)	inactive: 106%
O=[N+]([O-])c1cc([N+](=O)[O-])c(-c2ccn[nH]2)s1	inactive: 97%
CC(C)c1ccc(OP(=O)(Nc2ccccn2)Oc2ccccc2F)cc1 (stereo unspecified)	inactive: 100%
ClCCSc1nnc(-c2cccnc2)o1	inactive: 102%
Cc1ccc2nc3c(c(C)c2c1)CC(C(Cl)Cl)S3 (stereo unspecified)	inactive: 123%
Cc1ccc(OP(=O)(Nc2ccc([N+](=O)[O-])cn2)Oc2ccc(C)cc2)cc1	inactive: 91%
O=[As](O)(c1ccc(O)cc1)c1ccccc1O	inactive: 108%
C[As](=O)(O)c1cccc(C(=O)O)c1	inactive: 60%
COc1ccc(N/C(=N/P(=O)(N2CCOCC2)N2CCOCC2)N2CCOCC2)cc1	inactive: 110%
COc1ccc2nc(NP(=O)(c3ccccc3)c3ccccc3)sc2c1	inactive: 113%
COc1cc(I)ccc1[As](=O)(O)O	inactive: 101%
O=C(OC1CN2CCC1CC2)C12CC3CC(CC(C3)C1)C2 (stereo unspecified)	inactive: 95%
Cc1cc(=O)[nH]c(N[N+](=O)[O-])n1	inactive: 93%
Cc1c2c(nc3ccccc13)SC(C(Cl)Cl)C2 (stereo unspecified)	inactive: 106%
